Experimental data from PMC3422576 (Science translational medicine, 2010).

Test system: resistant tumor cells
Assay: Ex-vivo medulloblastoma proliferation assay
Assay type: cell-based, mouse
Conditions: cells freshly isolated from resistant tumors

Compound: CC1=C2C[C@H]3[C@@H](CC=C4C[C@@H](O)CC[C@@]43C)[C@@H]2CC[C@]12O[C@@H]1C[C@H](C)CN[C@H]1[C@H]2C [cyclopamine]
- growth of resistant tumor cells upon exposure: largely unaffected
